## scFv variants of Ab-95 (light chain) against a SARS-CoV-2 spike peptide

All variants were tested on one target, the spike HR2 peptide PDVDLGDISGINAS (SARS-CoV-2).

Ab-95 is the parent antibody, in scFv form: VH, then the linker GGGGSGGGGSGGGGS, then VL. The heavy chain is unchanged in all variants.
VH: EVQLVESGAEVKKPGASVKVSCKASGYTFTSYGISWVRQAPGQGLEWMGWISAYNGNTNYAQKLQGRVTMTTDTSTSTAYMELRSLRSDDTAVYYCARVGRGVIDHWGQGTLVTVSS
VL: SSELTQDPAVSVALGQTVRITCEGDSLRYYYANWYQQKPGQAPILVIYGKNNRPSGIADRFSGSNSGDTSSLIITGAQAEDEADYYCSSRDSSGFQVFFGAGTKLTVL

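Phage display of a naive human antibody library on the peptide gave the parent. The library (AAYL52) carries one to three amino acid substitutions per variant, with no insertions or deletions. AlphaSeq pools MATa yeast showing the antibodies with MATalpha yeast showing the peptide. The frequency of each diploid, read from paired DNA barcodes, reflects how well the two displayed proteins bind. Read counts were normalised to the haploid input and turned into Kd by a linear fit to BCL2-family pairs of known affinity, for each replicate. Each pool was mated in three replicate cultures.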

Changes read parent residue, position, new residue, counted from the first residue of the VL shown.
Numbers give log10(Kd / nM), so 0 is 1 nM and 3 is 1 µM. Smaller is tighter.
Replicates are averaged; those with no signal do not enter the mean.
A pair that was not seen in any replicate is written "no signal"; this usually means weak binding, but a binder can also be missed.
Entries are sorted by rising average, undetected variants last.

{"changes": "E23Q R28Y K50Q", "log10 Kd (nM), mean": "1.47", "replicates with signal": "3 of 3"}
{"changes": "Y30I Y31D S88A", "log10 Kd (nM), mean": "1.56", "replicates with signal": "3 of 3"}
{"changes": "R28S S88H", "log10 Kd (nM), mean": "1.66", "replicates with signal": "3 of 3"}
{"changes": "Y31H D91C S92Q", "log10 Kd (nM), mean": "1.96", "replicates with signal": "3 of 3"}
{"changes": "N51Q N52Q P54M", "log10 Kd (nM), mean": "2.20", "replicates with signal": "3 of 3"}
{"changes": "Y31E N51A S92G", "log10 Kd (nM), mean": "2.42", "replicates with signal": "3 of 3"}
{"changes": "K50S R90H", "log10 Kd (nM), mean": "2.81", "replicates with signal": "3 of 3"}
{"changes": "Y30H S92L V97K", "log10 Kd (nM), mean": "2.90", "replicates with signal": "3 of 3"}
{"changes": "A32P P54N D91F", "log10 Kd (nM), mean": "3.15", "replicates with signal": "3 of 3"}
{"changes": "E23H K50N S88R", "log10 Kd (nM), mean": "3.50", "replicates with signal": "1 of 3"}
{"changes": "F95D V97Q", "log10 Kd (nM), mean": "3.50", "replicates with signal": "1 of 3"}
{"changes": "N33Q K50E G94M", "log10 Kd (nM), mean": "3.58", "replicates with signal": "3 of 3"}
{"changes": "K50R N51R S88N", "log10 Kd (nM), mean": "3.81", "replicates with signal": "2 of 3"}
{"changes": "R53C S92Q", "log10 Kd (nM), mean": "4.00", "replicates with signal": "1 of 3"}
{"changes": "A32P N52D R53D", "log10 Kd (nM), mean": "4.15", "replicates with signal": "3 of 3"}
{"changes": "G49T G94W", "log10 Kd (nM), mean": "5.50", "replicates with signal": "1 of 3"}
{"changes": "N33Y S93F G94D", "log10 Kd (nM), mean": "no signal", "replicates with signal": "0 of 3"}
{"changes": "R28H A32L S92I", "log10 Kd (nM), mean": "no signal", "replicates with signal": "0 of 3"}
{"changes": "L27G R28S S92W", "log10 Kd (nM), mean": "no signal", "replicates with signal": "0 of 3"}

Top 2 of the variants detected in all replicates, tightest first:

{"changes": "E23Q R28Y K50Q", "log10 Kd (nM), mean": "1.47", "replicates with signal": "3 of 3"}
{"changes": "Y30I Y31D S88A", "log10 Kd (nM), mean": "1.56", "replicates with signal": "3 of 3"}

Empty control strains, which show no peptide, gave a signal in 28% of pairings with library AAYL52; the median was 3.91 and 95% of these signals were weaker than 2.90. No background was subtracted.
In this assay the parent's reference entry averaged 2.31; its copy inside this library read 2.25.

Data: MIT Lincoln Laboratory AlphaSeq set, Engelhart et al. 2022, doi:10.1038/s41597-022-01779-4, as distributed in FLAb.